From patent US7825146B2, “Sulfonamide derivative having isoxazole ring” (Shionogi & Co., Ltd., priority 2003, dated 2010) come the findings set out here.

By UniProt entry, the sequences of proteins in these tests, tags left out. Residues count along the entry.
UniProt P39900, 100-263 limits assumed: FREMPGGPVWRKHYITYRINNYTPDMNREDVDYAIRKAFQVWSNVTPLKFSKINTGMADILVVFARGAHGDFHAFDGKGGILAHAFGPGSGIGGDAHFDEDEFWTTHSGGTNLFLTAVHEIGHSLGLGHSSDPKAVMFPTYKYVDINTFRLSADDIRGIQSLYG
UniProt P22894, 99-262 limits assumed: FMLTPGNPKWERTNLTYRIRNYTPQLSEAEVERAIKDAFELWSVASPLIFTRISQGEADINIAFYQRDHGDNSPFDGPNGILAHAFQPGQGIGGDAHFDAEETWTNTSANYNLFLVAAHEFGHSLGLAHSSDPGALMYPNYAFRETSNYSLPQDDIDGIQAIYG

One test addresses MMP-13 (Homo sapiens, UniProt P45452). In words: Assay for inhibitory activities on MMPs (fluorogenic MOCAc peptide substrate): MMP-13. The conditions noted are these: read-out: MMP-13 (μM) inhibitory activity (IC50), Table 40. On the procedure: In regard to MMP-13, mRNA was prepared from carcinoma cell SW1353 derived from human cartilage stimulate by IL-1, TNF and catalytic domain (^104Tyr˜^267Gly) was amplified with RT-PCR. This was cloned in Escherichia. coli expression vector pTrc99AHE inserted with His-tag sequence and enterokinase digestion-site, induced and expressed by IPTG (Isopropyl-β-D-thiogalactopyranoside) and expressed in a insoluble fraction. Isolation of MMP-13 from an insoluble fraction was carried out by dissolving in modifier (6M urea) by a usual method and purification with metal chelate chromatography (Ni Chelateing Sepharose). […]
(§1) The enzymatic activity on MMPs was analyzed by the method described in “C. […] The measurement of the inhibitory activities (IC50) was carried out by the following four methods; • (A) Reaction with substrate, enzyme (MMPs) and inhibitor • (B) Reaction with substrate and inhibitor, without enzyme • (C) Reaction with substrate and enzyme (MMPs), without inhibitor • (D) Reaction with substrate only IC50 values were calculated by using the following formula and each fluorescence values of above four methods (A to D). […]
(§2) The value of inhibitory activity against MMP-2, MMP-8, MMP-9, MMP-12, and MMP-13 measured by above mentioned methods are shown in Table 36, 37, 38, 39, and 40 respectively.

The target of another test is MMP-12 (Homo sapiens, UniProt P39900). In words: Assay for inhibitory activities on MMPs (fluorogenic MOCAc peptide substrate): MMP-12. Particulars: read-out: MMP-12 (μM) inhibitory activity (IC50); catalytic domain 100Phe-263Gly. On the procedure:
In regard to MMP-12, catalytic domain(^100Phe˜^263Gly) was amplified with RT-PCR from Human Placenta Total RNA. This was cloned in Escherichia. coli expression vector pTrc99AHE inserted with His-tag sequence and enterokinase digestion-site, induced and expressed by IPTG (Isopropyl-β-D-thiogalactopyranoside) and expressed in a insoluble fraction. Isolation of MMP-12 from an insoluble fraction was carried out by dissolving in modifier (6M urea) by a usual method and purification with metal chelate chromatography (Ni Chelateing Sepharose). And then removing modifier (6M urea) with dialysis and refolding of the enzyme spontaneously gave activated MMP-12.
as §1, §2

In a further test the target is MMP-8 (Homo sapiens, UniProt P22894). Description: Assay for inhibitory activities on MMPs (fluorogenic MOCAc peptide substrate): MMP-8. Particulars: read-out: MMP-8 (μM) inhibitory activity (IC50); catalytic domain 99Phe-262Gly.
Excerpt: In regard to MMP-8, catalytic domain (^99Phe˜^262Gly) was amplified with PCR using commercial available Human Bone Marrow cDNA. This was cloned in Escherichia. coli expression vector pTrc99AHE inserted with His-tag sequence and enterokinase digestion-site, induced and expressed by IPTG (Isdpropyl-β-D-thiogalactopyranoside) and expressed in a insoluble fraction (Thau F. Ho, M. Walid Qoronfleh, Robert C. Wahl, Trica A. Pulvino, Karen J. Vavra, Joe Falvo, Tracey M. Banks, Patricia G. Brake and Richard B. Ciccarelli: Gene expression, purification and characterization of recombinant human neutrophil collagenase. Gene 146, (1994) 297-301, Prepared by the a improved method of this material). […]
as §1, §2

As a reminder, the IC50 is the midpoint of a concentration-inhibition curve. For `COc1ccc(-c2cc(-c3ccc(S(=O)(=O)N[C@H](Cc4c[nH]c5ccccc45)C(=O)O)cc3)on2)cc1`, the half-maximal inhibitory concentration (IC50) on MMP-13 was 0.000828 µM; at MMP-12, 0.000529 µM. With `CC(C)[C@H](NS(=O)(=O)c1ccc(-c2cc(-c3ccc(OC(F)(F)F)cc3)no2)cc1)C(=O)O`, the IC50 at MMP-13 was 0.000796 µM; at MMP-12, 0.000259 µM. Take `Cc1ccc(-c2cc(-c3ccc(S(=O)(=O)N[C@H](C(=O)O)C(C)C)s3)on2)s1`: the IC50 on MMP-8 worked out at 0.00413 µM.
